For this experiment, the target named is T1, human NAPE-PLD (Homo sapiens, UniProt Q6IQ20).
T1 construct: Full length human cDNA NAPE-PLD was obtained from Natsuo Ueda; made in house; host or cells: HEK293T cells, transient transfection (pcDNA3.1); membrane fraction used
Nature of the experiment: In vitro NAPE-PLD activity assay. The format is biochemical. As to conditions: membrane protein fraction of HEK293T cells overexpressing human NAPE-PLD; substrate PED6 1 µM; 30 minutes preincubation at 37 °C. The method, then:
Full length human cDNA NAPE-PLD was obtained from Natsuo Ueda^1 and cloned into mammalian expression vector pcDNA3.1, containing a C-terminal Flag-tag and genes for ampicillin and neomycin resistance. All plasmids were grown in XL-10 Z-competent cells and prepped (Maxi Prep, Qiagen). Sequence analysis for the confirmation of the sequences was performed at the Leiden Genome Technology Centre.
HEK293T were cultured at 37 °C and 7% CO2 in DMEM (Sigma Aldrich, D6546) with glutamax, penicillin (100 µg/ml), streptomycin (100 µg/ml) and 10% New Born Calf Serum iron supplemented (Hyclone SH30072.03). Cells were passaged twice a week to appropriate confluence.
24 hours before transfection 10^7 cells are seeded on a 15 cm dish. Two hours before transfection medium is refreshed, low volume. Transfection is performed with PEI in a ratio of 3:1 with human NAPE-PLD or Mock pcDNA3.1 Neo, 20 µg per dish. Medium is refreshed after 24 hours and cells are harvested after 72 hours.
Cell pellets are re-suspended in lysis buffer: 20 mM Hepes, 2 mM DTT, 0.25 M sucrose, 1 mM MgCl2, 2.5 U/ml benzonase and incubated 30 minutes on ice. The cytosolic fraction (supernatant) is separated from the membranes by ultra-centrifugation (32000 rpm for 30 minutes 100,000g). The pellet is resuspended in storage buffer: 20 mM Hepes, 2 mM DTT (membrane fraction). […] Enzyme concentrations are determined using a Bradford assay. […]

Protein sequences, listed by entry. Tags and fused reporters are not part of them. Lines headed by an entry give the natural chain unless they say otherwise; changes in a name come on top.
UniProt Q6IQ20: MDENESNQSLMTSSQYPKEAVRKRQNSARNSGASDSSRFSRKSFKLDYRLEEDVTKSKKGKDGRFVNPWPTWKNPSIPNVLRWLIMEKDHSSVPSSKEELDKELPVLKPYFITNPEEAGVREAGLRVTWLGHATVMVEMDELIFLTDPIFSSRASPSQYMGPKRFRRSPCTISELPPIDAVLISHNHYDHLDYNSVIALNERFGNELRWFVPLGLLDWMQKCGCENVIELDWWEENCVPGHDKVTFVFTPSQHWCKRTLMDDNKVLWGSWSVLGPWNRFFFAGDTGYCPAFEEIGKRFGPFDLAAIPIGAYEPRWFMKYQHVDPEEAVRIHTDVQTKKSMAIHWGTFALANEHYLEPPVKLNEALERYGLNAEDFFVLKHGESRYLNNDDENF

Molecules are shown by their SMILES.

On to `CN(C)c1cc(C(=O)NCC2CC2)nc(N2CCC[C@@H](c3ccccc3)C2)n1` [Example 18, (S)-N-(cyclopropylmethyl)-6-(dimethylamino)-2-(3-phenylpiperidin-1-yl)pyrimidine-4-carboxamide], for which the IC50 is 112 nM. In turn, `CN(C)c1cc(C(=O)NCC2CC2)nc(N2CCC[C@H](c3ccccc3)C2)n1` [Example 19, (R)-N-(cyclopropylmethyl)-6-(dimethylamino)-2-(3-phenylpiperidin-1-yl)pyrimidine-4-carboxamide] showed an IC50 of 407 nM.

These data come from patent EP3575287A1, “INHIBITORS OF N-ACYLPHOSPHATIDYLETHANOLAMINE PHOSPHOLIPASE D (NAPE-PLD)” (Universiteit Leiden, priority 2018, dated 2019).
